SMILES strings stand for the structures. The entries are a selection whose mix differs from that of the whole data set. The source made the active and inactive calls. Rule as the data show it: active = inhibition above about 50%; inactive = the rest.

The chains behind the UniProt entries cited, without tags or fusion partners. Where a name states a change or a piece, a line headed by the entry shows the natural chain unless it says otherwise.
UniProt P41145: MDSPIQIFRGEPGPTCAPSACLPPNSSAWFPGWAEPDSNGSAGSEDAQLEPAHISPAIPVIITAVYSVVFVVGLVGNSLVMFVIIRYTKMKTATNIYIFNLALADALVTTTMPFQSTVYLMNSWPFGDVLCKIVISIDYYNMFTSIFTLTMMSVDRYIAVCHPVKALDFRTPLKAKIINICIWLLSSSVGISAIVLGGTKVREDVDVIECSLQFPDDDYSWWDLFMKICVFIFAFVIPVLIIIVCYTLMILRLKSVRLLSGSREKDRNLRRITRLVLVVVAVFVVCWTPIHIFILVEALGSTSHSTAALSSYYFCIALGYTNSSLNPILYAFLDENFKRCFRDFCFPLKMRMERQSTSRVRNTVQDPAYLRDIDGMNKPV

In the test the target is Kappa-type opioid receptor (Homo sapiens) (UniProt P41145). As to the kind of experiment: blocks the human kappa opioid receptor, Maybridge compounds (AID 652031). The note with it: OPRK1 cells, antagonist mode, fluorescence readout; at 9 µM; active compounds read high.
As for `CN1CCC2(N3CCOCC3)C(C1)N=NN2c1cc(C(F)(F)F)cc(C(F)(F)F)c1` (stereo not drawn), the inhibition is inactive: 19%. For `CCC(=O)OCCC(=O)N1C=Cc2ccccc2C1C#N` (stereo not drawn) the value was inactive: 12.7%; for `O=C(OC1CN2CCC1CC2)c1cccc([N+](=O)[O-])c1` (stereo not drawn), inactive: -12.4%; for `COC(=O)c1ccc2c(c1)nnn2C1CCN(Cc2ccccc2)CC1`, inactive: 10.8%. Turning to `COc1ccc(OCCC(=O)N/N=C/C=C/c2ccccc2)cc1`, the inhibition was inactive: 1.1%. For `CCOC(=O)/C(=N/Nc1ccc([N+](=O)[O-])cc1)N1CC1` the value was inactive: -4.1%; for `Cn1c(NC2CCN(Cc3ccccc3)CC2)cc(=O)n(C)c1=O`, inactive: 20.8%; for `OC(CSc1ccccc1)CN1CCC(Nc2nccc(C(F)(F)F)n2)CC1` (stereo not drawn), inactive: 5.5%. For `O=c1[nH]c2ccccc2n1C1CCNCC1` the value was inactive: 12.2%; for `Cn1c(=O)c2c(nc3n2CCN3CCO)n(C)c1=O`, inactive: 10.7%.

With `COc1ccc(OCCC(=O)NNC(=O)/C=C/c2ccc3c(c2)OCO3)cc1`, the inhibition was inactive: -10.3%. For `c1ccc(CN2CCC(Nc3ncnc4scc(-c5ccccc5)c34)CC2)cc1` the value was inactive: -15.7%.

Consider `CC1(C)c2ccccc2N2CCC(=O)NC21/C=C/c1cccs1` (stereo not drawn), for which the inhibition is inactive: 16.1%. To `N#Cc1c(F)cccc1NC1CCN(Cc2ccccc2)CC1` belongs inactive: 2.6%.

On to `CC1CN(CCn2cnc3c(N)ncnc32)CC(C)O1` (stereo not drawn), for which the inhibition was inactive: -3.3%. `CC(C)c1nc2ccccc2n1C1CC(=O)N(c2ccc(Cl)cc2)C1=O` (stereo not drawn): the inhibition was inactive: -3%. In the case of `Cc1csc2c(NC3CCN(Cc4ccccc4)CC3)ncnc12`, the inhibition was active: 52.8%. To `c1ccc(CN2CCC3(CC2)Nc2ccccc2S3)cc1` belongs inactive: 6.9%; to `O=[N+]([O-])c1ccccc1NC1CCN(Cc2ccccc2)CC1`, inactive: 22.7%; to `FC(F)(F)c1ccnc(NC2CCN(Cc3ccccc3)CC2)n1`, inactive: 9.1%.

Regarding `OC(COc1ccc(Cl)c(Cl)c1)CN1CCC(Nc2nccc(C(F)(F)F)n2)CC1` (stereo not drawn), the inhibition was inactive: 9.2%.

Regarding `Cn1c(=O)c2c(ncn2CCN2CCOCC2)n(C)c1=O`, the inhibition was inactive: 11.1%. For the compound `CC(NCCn1cnc2c(N)ncnc21)c1ccccc1` (stereo not drawn), the inhibition is inactive: 18.2%.

For the origin of these results see PubChem BioAssay AID652031 (The Scripps Research Institute Molecular Screening Center, 2013).
